From patent publication US20260159854A1, “NOVEL CARRIERS FOR NUCLEIC ACID AND/OR PROTEIN DELIVERY” (LUDWIG-MAXIMILIANS-UNIVERSITÄT MÜNCHEN, priority 2022, published 2026)

Assay: Particle size, polydispersity and zeta potential measurement (DLS, ELS)
Type: physicochemical
Protocol: 6.6 Particle Size and Zeta Potential Measurement for pDNA, mRNA, siRNA, Cas9 mRNA/sgRNA and Cas9 mRNA/sgRNA/ssDNA Polyplexes as Well as mRNA LNPs
Measurements of size and zeta potential were performed with a Zetasizer Nano ZS (Malvern Instruments, Malvern, Worcestershire, U.K.) in a folded capillary cell (DTS1070) by dynamic and electrophoretic laser-light scattering (DLS, ELS). […] Samples were measured three times with six sub runs per measurement. For measurement of the zeta potential, all samples were diluted to 800 μL with HBG or HEPES (for siRNA polyplexes) directly before measurement. Parameters were identical to the size measurement apart from an equilibration time of 60 sec. Three measurements with 15 sub runs lasting 10 sec each were performed, and zeta potentials were calculated by the Smuchowski equation.

Which Pdl (Cas9 mRNA/sgDMDex23 polyplexes, N/P 24, combined nucleic acid 12.5 μg/mL) does the source give for “K(8Oc)2-Stp2-K(8Oc)-K(8Oc) [compound 1731]” here?
The Pdl was 0.201.

With “[K(12Oc)]2-Stp2-[K(12Oc)]2 [compound 1719]” as the substance, how does the Z-average (dialyzed mRNA polyplexes for in vivo application, 66.7 μg/mL mRNA, 1611 N/P 18, 1719 N/P 12) read?
The Z-average was 108.7 ± 2.0 nm.
